Results on two compounds are retold here after patent US10072011B2, “Substituted bridged urea analogs as sirtuin modulators” (GlaxoSmithKline Intellectual Property (No.2) Limited, priority 2014, dated 2018).

For the assay, the target named is T1, SIRT1 (Homo sapiens, UniProt Q96EB6).
T1 sequence (Q96EB6 1-747): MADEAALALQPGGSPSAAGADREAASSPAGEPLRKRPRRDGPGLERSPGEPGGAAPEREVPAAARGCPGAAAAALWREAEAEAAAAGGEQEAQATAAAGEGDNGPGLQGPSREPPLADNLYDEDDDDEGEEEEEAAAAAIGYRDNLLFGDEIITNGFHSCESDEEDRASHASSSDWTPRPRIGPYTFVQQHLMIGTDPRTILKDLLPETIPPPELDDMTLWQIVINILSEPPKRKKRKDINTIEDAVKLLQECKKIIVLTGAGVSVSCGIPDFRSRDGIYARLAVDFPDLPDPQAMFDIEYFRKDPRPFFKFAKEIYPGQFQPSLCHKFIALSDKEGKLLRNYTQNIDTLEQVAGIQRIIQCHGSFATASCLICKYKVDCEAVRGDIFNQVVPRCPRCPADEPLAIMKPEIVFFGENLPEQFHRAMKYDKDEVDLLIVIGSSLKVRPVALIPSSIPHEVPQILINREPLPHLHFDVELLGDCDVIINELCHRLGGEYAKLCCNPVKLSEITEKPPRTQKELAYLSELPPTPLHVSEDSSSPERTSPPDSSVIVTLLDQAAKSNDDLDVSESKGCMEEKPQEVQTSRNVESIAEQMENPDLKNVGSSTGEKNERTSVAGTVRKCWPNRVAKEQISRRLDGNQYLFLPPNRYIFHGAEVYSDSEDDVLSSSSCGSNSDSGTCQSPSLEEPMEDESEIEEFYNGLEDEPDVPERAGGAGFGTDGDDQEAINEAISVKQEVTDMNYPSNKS
The assay can be described thus: Trp mass spectrometry assay of SIRT1 activation (Ac-R-H-K-K(Ac)-W-NH2 peptide). Type of assay: biochemical. The conditions noted are these: for Emax: 25 min, read-out: TRP MAX RESP (percent maximum fold activation); for TRP Activity (EC1.5, concentration of test compound that results in 150% activation of SIRT1): Trp peptide 0.5 μM, 120 μM βNAD+, 10 nM SIRT1, 25 min at 25° C. The method, then:
The Trp mass spectrometry assay was conducted as follows. […] The SIRT1 protein was obtained by cloning the SirT1 gene into a T7-promoter containing vector, which was then expressed in BL21(DE3) bacterial cells and purified as described in further detail below. Test compound was added at varying concentrations to this reaction mixture and the resulting reactions were monitored. After the 25 minute incubation with SIRT1, 10 μL of 10% formic acid was added to stop the reaction. The resulting reactions were sealed and frozen for later mass spec analysis. The relative SIRT1 activity was then determined by measuring the amount of O-acetyl-ADP-ribose (OAADPR) formed (or, alternatively, the amount of deacetylated Trp peptide generated) by the NAD-dependent sirtuin deacetylation reaction in the presence of varying concentrations of the test compound versus control reactions lacking the test compound. The degree to which the test agent activated deacetylation by SIRT1 was expressed as EC1.5 (i.e., the concentration of compound required to increase SIRT1 activity by 50% over the control lacking test compound), and Percent Maximum Activation (i.e., the maximum activity relative to control (100%) obtained for the test compound).
This time point was the same as that used for test compounds and, within the linear range, the endpoint represents a change in velocity.
For the above assay, SIRT1 protein was expressed and purified as follows. The SirT1 gene was cloned into a T7-promoter containing vector and transformed into BL21(DE3). The protein was expressed by induction with 1 mM IPTG as an N-terminal His-tag fusion protein at 18° C. overnight and harvested at 30,000×g. Cells were lysed with lysozyme in lysis buffer (50 mM Tris-HCl, 2 mM Tris[2-carboxyethyl]phosphine (TCEP), 10 μM ZnCl2, 200 mM NaCl) and further treated with sonication for 10 min for complete lysis. The protein was purified over a Ni-NTA column (Amersham) and fractions containing pure protein were pooled, concentrated and run over a sizing column (Sephadex S200 26/60 global). The peak containing soluble protein was collected and run on an Ion-exchange column (MonoQ). Gradient elution (200 mM-500 mM NaCl) yielded pure protein. This protein was concentrated and dialyzed against dialysis buffer (20 mM Tris-HCl, 2 mM TCEP) overnight. The protein was aliquoted and frozen at −80° C. until further use.
“NT” means not tested; “ND” means not determinable.

In the case of `C[C@@H](NC(=O)c1ccc2c(n1)N(C(=O)Nc1cc(C(=O)N(C)C)ccn1)[C@H]1CCN2C1)C(F)(F)F` [Example 150, (4S)—N5-(4-(dimethylcarbamoyl)pyridin-2-yl)-N7-((R)-1,1,1-trifluoropropan-2-yl)-3,4-dihydro-1,4-methanopyrido[2,3-b][1,4]diazepine-5,7(2H)-dicarboxamide], the Emax is more than 150% and the “TRP Activity (EC1.5, concentration of test compound that results in 150% activation of SIRT1)” value is “B (EC1.5 1-25 μM)”.
On to `CN(C)C(=O)c1ccc2c(n1)N(C(=O)Nc1ccccn1)[C@H]1CCN2C1` [Example 258, (4S)—N7,N7-dimethyl-N5-(pyridin-2-yl)-3,4-dihydro-1,4-methanopyrido[2,3-b][1,4]diazepine-5,7(2H)-dicarboxamide], for which the Emax was less than 150% and the “TRP Activity (EC1.5, concentration of test compound that results in 150% activation of SIRT1)” value is listed as “C (EC1.5>25 μM)”.
